Experimental data from patent publication US20150344404A1, “PDK4 INHIBITOR AND USE THEREOF” (THE KITASATO INSTITUE, priority 2012, published 2015).
pIC50: −log10 of the molar value.

Amino acid sequences for entries named in this document (tags omitted).
UniProt Q16654, whole entry: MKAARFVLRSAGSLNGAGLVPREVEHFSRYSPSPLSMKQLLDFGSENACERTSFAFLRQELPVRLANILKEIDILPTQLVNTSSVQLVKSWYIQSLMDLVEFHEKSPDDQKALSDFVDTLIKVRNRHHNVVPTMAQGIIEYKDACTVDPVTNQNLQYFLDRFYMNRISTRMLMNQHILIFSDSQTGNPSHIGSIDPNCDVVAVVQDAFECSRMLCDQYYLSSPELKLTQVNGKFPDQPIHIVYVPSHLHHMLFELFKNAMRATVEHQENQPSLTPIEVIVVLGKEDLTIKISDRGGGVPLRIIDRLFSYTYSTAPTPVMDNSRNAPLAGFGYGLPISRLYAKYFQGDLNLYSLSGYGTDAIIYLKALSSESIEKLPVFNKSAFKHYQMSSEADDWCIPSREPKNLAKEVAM

Target: PDK4 (Homo sapiens, UniProt Q16654)
Experiment: PDK4 enzyme inhibitory activity by off-chip mobility shift assay
Details: read-out: IC50, PDK inhibitory activity of representative compounds; Table 34; recombinant human PDK4, room temperature, 5 hours

| pIC50 | Compound |
| --- | --- |
| 5.05 | COC(=O)c1cc2cc3c(c(O)c2c(=O)o1)OC1(CC3)Cc2c(O)c3c(c(O)c2O1)C(=O)C(OC)=CC3=O (stereo not drawn) |
| 5.05 | COC1=C(OC)C(=O)c2ccccc2C1=O |
| 4.74 | O=C(O)c1ccc2c(O)ccc(O)c2c1 |
